Measured values as given in US20040063764A1, “Halogen compounds having thrombopoietin receptor agonism” (priority 2001, published 2004).

By UniProt entry, the sequences of proteins in these tests, tags left out. Residues count along the entry.
UniProt P40238, 26-635 limits assumed: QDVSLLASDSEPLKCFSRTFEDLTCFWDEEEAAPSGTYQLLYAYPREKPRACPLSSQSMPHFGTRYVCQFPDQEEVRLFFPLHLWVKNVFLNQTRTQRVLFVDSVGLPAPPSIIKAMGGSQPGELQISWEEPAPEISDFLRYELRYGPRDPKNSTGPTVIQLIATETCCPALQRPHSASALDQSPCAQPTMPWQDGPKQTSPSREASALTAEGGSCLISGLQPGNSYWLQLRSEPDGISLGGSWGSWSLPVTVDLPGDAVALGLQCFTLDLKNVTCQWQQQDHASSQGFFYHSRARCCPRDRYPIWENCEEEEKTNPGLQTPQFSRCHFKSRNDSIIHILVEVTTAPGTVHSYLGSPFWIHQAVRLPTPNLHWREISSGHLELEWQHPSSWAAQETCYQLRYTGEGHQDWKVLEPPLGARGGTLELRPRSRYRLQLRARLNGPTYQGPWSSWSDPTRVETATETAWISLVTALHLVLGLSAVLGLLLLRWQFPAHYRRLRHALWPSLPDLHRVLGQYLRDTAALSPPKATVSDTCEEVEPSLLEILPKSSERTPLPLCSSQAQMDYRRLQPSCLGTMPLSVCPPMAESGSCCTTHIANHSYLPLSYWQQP

Molecular target: human TPO receptor (Homo sapiens, UniProt P40238)
Assay: Thrombopoietic activity: proliferation of TPO dependent BaF/hTPOR cell line (WST-1)
Details: read-out: ED50; BaF/hTPOR cells, 20 hours incubation then WST-1 for 4 hours, absorbance at 450 nm; ED50 = half concentration of the concentration showing the maximum thrombopoietic activity
Description: The TPO dependent BaF/hTPOR cell line which was established by introducing human TPO receptor into BaF-B03 cells according to Collins et al (J. Cell. Physiol., 137:293-298 (1988)) was used to test the thrombopoietic activity of the present compound. The DNA sequences and encoded peptide sequences for human TPO receptor have been described by Vigon et al (Proc. Natl. Acad. Sci. USA, 89:5640-5644 (1992)). TPO dose not have any ability to support proliferation of interlukin-3 dependent parental cell line BaF-B03. BAF/hTPOR cells were maintained in RPMI medium and 10% WEHI-3 conditioned medium. These cells were washed once with PBS and resuspended in RPMI medium without WHEHI-3 conditioned medium and seeded into each well of 96-well microtiter plates at a density of 5×10^4 cells per well in the presence of the present compound or TPO. After incubation at 37° C. for 20 hours in the 5% CO2 incubator, WST-1 reagent (Takara Biomedicals, Japan) was added to each wells and the cells were further incubated for 4 hours. The absorbance at 450 nm was measured. Table 7 exemplifies the ED50 for tested compounds of the present invention, wherein the ED50 is the half concentration of the concentration showing the maximum thrombopoietic activity.

Row | SMILES | EC50 [nM]
1 | O=C1NC(=O)/C(=C/c2ccc(C(=O)Nc3nc(-c4ccc(F)cc4F)cs3)cc2)S1 | 81
2 | O=C1NC(=O)/C(=C/c2ccc(C(=O)Nc3nc(-c4cccc(C(F)(F)F)c4F)cs3)cc2)S1 | 70
